PubChem BioAssay AID1700 (The Scripps Research Institute Molecular Screening Center, 2009)
This is a selection; strong and weak results do not stand in their true shares. Active and inactive are the calls of the source.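 How the source made its calls: active means inhibition above a per-plate limit of that plate's mean compound inhibition plus 3 SD (cut at about 60% in these data); inactive means the rest.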

assay: KLF5 expression inhibitors, primary screen, DLD-1 cells, luminescence (AID 1700); conditions: DLD-1 KLF5 promoter-luciferase reporter, at 5 µM, stronger effect = higher value;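 further: 0% = DMSO wells and 100% = LY294002 at 200 µM; higher means less KLF5 promoter-driven luciferase light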

SMILES	inhibition
O=C(OC1CN2CCC1CC2)C1c2ccccc2C=Cc2ccccc21 (centres undefined)	inactive: -1.01%
CCOC(=O)N1CCC(Nc2ccc(C)cc2)CC1	inactive: -37.7%
N/C(=N\O)c1c(N)no[n+]1[O-]	inactive: -54.5%
COc1ccc(C(=O)NCC2(N3CCOCC3)CCCCC2)cc1OC	inactive: -37.4%
CN(C)C1(CNC(=O)c2cccc(C#N)c2)CCCCC1	inactive: -4.12%
CCCN1CCC(Nc2cc(OC)cc(OC)c2)CC1	inactive: -11.9%
c1ccc(CN2CCC(Nc3ccccc3)CC2)cc1	inactive: -3.93%
N#Cc1ccc(C(=O)NCC2(N3CCCCC3)CCCCC2)cc1	inactive: -4.07%
CC(C)(C)OC(=O)N1CCC(N(C(=O)c2ccccc2)c2ccc(Cl)cc2)CC1	inactive: -52.6%
CN(C)c1ccc(C(=O)NCC2(N3CCCCC3)CCCCC2)cc1	inactive: 7.25%
CCN1CCC(Nc2cccc(F)c2)CC1	inactive: -1.04%
COc1cc(OC)cc(C(=O)NCC2(N3CCCCC3)CCCCC2)c1	inactive: 15.9%
CN1CCC(Nc2ccc(Cl)cc2)CC1	inactive: -6.18%
CCCOc1ccc(C)cc1CN(CCCl)CCCl	inactive: -6.41%
COc1cc(OC)cc(C(=O)NCC2(N3CCOCC3)CCCCC2)c1	inactive: -4.37%
COc1cccc(C(=O)N(c2cc(C)cc(C)c2)C2CCN(C(=O)OC(C)(C)C)CC2)c1	inactive: -27.8%
CCC(CO)(C(=O)OC1CN2CCC1CC2)c1ccccc1 (centres undefined)	inactive: -20.2%
O=C(O)C1(Nc2ccccc2)CCN(Cc2ccccc2)CC1	inactive: -22.2%
CC(C)(C)OC(=O)N1CCC(Nc2ccccc2)CC1	inactive: -9.96%
CCCOc1ccc(C(=O)NCC2(N(C)C)CCCCC2)cc1	inactive: -15.2%
CN1CCC(Nc2ccc(F)c(Cl)c2)CC1	inactive: -32%
CCOc1ncccc1C(=O)NCC1(N2CCOCC2)CCCCC1	inactive: -11.2%
O=C(OC1CN2CCC1CC2)C1c2ccccc2Oc2ccccc21 (centres undefined)	inactive: -4.89%
N#CC1(Nc2ccccc2)CCN(Cc2ccccc2)CC1	inactive: -7.43%
CCOC(=O)N1CCC(Nc2ccc(OC)cc2)CC1	inactive: -23.7%
Cc1cc(C)cc(N(C(=O)c2ccccc2)C2CCN(C(=O)OC(C)(C)C)CC2)c1	inactive: -17.4%
O=C(NCC1(N2CCOCC2)CCCCC1)c1cc2ccccc2o1	inactive: -11.2%

SMILES	inhibition
CSc1ccccc1C(=O)NCC1(N2CCCCC2)CCCCC1	inactive: -7.63%
COc1ccc(C(=O)NCC2(N3CCCCC3)CCCCC2)c(OC)c1OC	inactive: -5.09%
CC(C)(C)OC(=O)N1CCC(N(C(=O)c2ccccc2)c2ccc(F)cc2)CC1	inactive: -31.7%
COc1ccc(C(=O)NCC2(N3CCCCC3)CCCCC2)cc1	inactive: -15.8%
O=C(NCC1(N2CCCCC2)CCCCC1)c1ccc(=O)[nH]c1	inactive: 11.9%
Cc1ccc(OCC(C)C)c(CN(CCCl)CCCl)c1	inactive: -1.48%
COc1cc(C(=O)NCC2(N(C)C)CCCCC2)ccc1OC(F)F	inactive: -35.5%
CCOC(=O)N1CCC(Nc2cccc(C)c2)CC1	inactive: -14.1%
COc1ccc(NC2CCN(CCc3ccccc3)CC2)c(OC)c1	inactive: -15.9%
CCOC(=O)N1CCC(Nc2ccc(F)cc2)CC1	inactive: -10.3%
O=C(NCC1(N2CCCCC2)CCCCC1)c1ccc(F)cc1	inactive: -16.1%
CCOc1ccc(C)cc1CN(CCCl)CCCl	inactive: -34.8%
COc1cc(C(=O)NCC2(N3CCCCC3)CCCCC2)ccc1OC(F)F	inactive: 0.34%
O=C(NCC1(N2CCOCC2)CCCCC1)c1cc(=O)[nH]c2ccccc12	inactive: -25.2%
CN1CCN(CCOC(=O)C(O)(c2ccccc2)c2ccccc2)CC1	inactive: -13.8%
COc1ccc(NC2CCN(C(=O)OC(C)(C)C)CC2)cc1	inactive: -21.5%
O=C(NCC1(N2CCCCC2)CCCCC1)c1cccc(C(F)(F)F)c1	inactive: -48.3%
N#CC1(Nc2ccccc2)CCN(CCc2ccccc2)CC1	inactive: -11.1%
CCN1CCC(Nc2ccc(Cl)cc2)CC1	inactive: -19.1%
O=C(NCC1(N2CCCCC2)CCCCC1)c1cccc([N+](=O)[O-])c1	inactive: -25.5%
O=C(NCC1(N2CCCCC2)CCCCC1)c1ccc(OC(F)F)cc1	inactive: -33.6%
CCCOc1ccc(C(=O)NCC2(N(C)C)CCCCC2)cc1OC	inactive: -14.2%
CN1CCC(Nc2cccc(F)c2)CC1	inactive: -23.3%
COc1cc(OC)c(C(=O)NCC2(N(C)C)CCCCC2)cc1OC	inactive: -8.51%
CC(C)c1ccc(NC2CCN(C(=O)OC(C)(C)C)CC2)cc1	inactive: -43.4%
CN(C)c1cccc(C(=O)NCC2(N3CCCCC3)CCCCC2)c1	inactive: -14%
COc1ccc(CN(CCCl)CCCl)cc1Cl	inactive: -24.3%
